Target: T1, Integrin alpha-L (Homo sapiens, UniProt P20701)
T1 sequence (P20701 whole entry): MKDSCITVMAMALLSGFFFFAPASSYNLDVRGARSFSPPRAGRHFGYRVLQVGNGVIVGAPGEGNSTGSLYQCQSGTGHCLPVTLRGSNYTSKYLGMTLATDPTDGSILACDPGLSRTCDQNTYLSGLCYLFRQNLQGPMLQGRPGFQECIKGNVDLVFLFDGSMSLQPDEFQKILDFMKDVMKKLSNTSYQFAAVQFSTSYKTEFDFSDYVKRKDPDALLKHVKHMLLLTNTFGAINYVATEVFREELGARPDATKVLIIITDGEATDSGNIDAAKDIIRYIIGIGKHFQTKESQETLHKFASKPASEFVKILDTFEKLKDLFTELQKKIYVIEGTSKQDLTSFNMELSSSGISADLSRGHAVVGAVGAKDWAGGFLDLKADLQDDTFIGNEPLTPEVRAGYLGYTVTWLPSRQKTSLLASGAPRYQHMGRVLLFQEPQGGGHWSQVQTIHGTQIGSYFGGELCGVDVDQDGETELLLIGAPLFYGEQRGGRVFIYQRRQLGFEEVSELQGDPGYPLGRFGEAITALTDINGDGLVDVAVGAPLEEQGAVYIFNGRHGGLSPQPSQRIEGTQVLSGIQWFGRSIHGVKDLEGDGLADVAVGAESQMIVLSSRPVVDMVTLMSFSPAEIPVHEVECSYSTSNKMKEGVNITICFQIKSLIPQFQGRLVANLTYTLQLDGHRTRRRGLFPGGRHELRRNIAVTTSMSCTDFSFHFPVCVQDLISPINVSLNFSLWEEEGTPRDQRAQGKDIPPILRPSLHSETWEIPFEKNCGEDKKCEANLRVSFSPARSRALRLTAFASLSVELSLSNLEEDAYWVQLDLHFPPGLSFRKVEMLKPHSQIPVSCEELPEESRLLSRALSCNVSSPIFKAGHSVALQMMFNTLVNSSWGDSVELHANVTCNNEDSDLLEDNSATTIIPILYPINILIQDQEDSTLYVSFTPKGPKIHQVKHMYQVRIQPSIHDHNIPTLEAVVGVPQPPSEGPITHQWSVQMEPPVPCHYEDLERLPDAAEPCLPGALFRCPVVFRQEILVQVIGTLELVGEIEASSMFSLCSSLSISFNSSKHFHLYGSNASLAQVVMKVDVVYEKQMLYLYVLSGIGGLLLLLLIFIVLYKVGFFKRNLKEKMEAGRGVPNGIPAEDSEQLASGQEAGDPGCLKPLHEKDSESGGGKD
Assay: Inhibition of intercellular adhesion molecule-1 (ICAM-1) binding to recombinant LFA-1, range(30-60)

Compound: CC(=O)N1CCN(C(=O)/C=C/c2ccc(Sc3ccccc3C(C)C)c([N+](=O)[O-])c2)CC1 [A-286982]
- IC50: 44 nM
